The numbers were not newly measured in patent US9243032B2, “Compositions for treatment of neurodegenerative diseases” (Ramot at Tel-Aviv University Ltd., priority 2009, dated 2016), which cites them from elsewhere.

For the data set, the target named is alpha-synuclein (Homo sapiens, UniProt P37840). Conditions: in vitro; Hashimoto et al., Neuron 2001; cited from earlier work.

Take “beta-synuclein: protein product of SNCB gene, 134 amino acids”: the “inhibition of aggregation of alpha-synuclein” value is “inhibit the aggregation of alpha-synuclein in a dose-dependent manner”.
